From patent US11548914B2, “IL-2Rgamma binding compounds” (MEDIKINE, INC., priority 2018, dated 2023)

Columns and labels:
[1] = system: resting CD8 T-cells, resting CD4 T-cells, and resting Treg (CD25hi CD127lo) cells; test: pSTAT5 activation in human T-cells by flow cytometry; format: cell-based; settings: 30 min incubation
Method: pSTAT5 activation of resting CD8 T-cells, resting CD4 T-cells, and resting Treg (CD25hi CD127lo) cells by the heterodimer of Example 14 was determined using the method described in Example 17.
The incubation time was 30 min and pSTAT5 was measured by flow cytometry.

NK-92 cells = test: STAT5 phosphorylation in NK-92 cells; format: cell-based, human; settings: 1 μg/mL Anti-hIL-2 neutralizing antibody
Method: NK-92 cells were seeded in a 24-well plate at 4×10^5 cells, in 1 mL starvation medium (SM), and incubated overnight at 37° C., 5% CO2. The starvation medium contained RPMI 1640+20% FBS+2 mM L-glutamine+1 mM NaPyr+10 mM HEPES+0.1 mM BME (no rhIL-2 supplement).
Treatment mixtures were of 1 μg/mL Anti-hIL-2 neutralizing antibody (0.2 mg/mL stock) or goat IgG control (1 mg/mL stock) were prepared.
The treatment mixtures and the antibody mix were added to the cells for 30 min at 37° C., 5% CO2. Each sample was then transferred to a 1.5 mL microfuge tube and spun down at 1,500 RPM for 5 minutes. The cells were washed in 1 mL PBS and centrifuged again.
A phosphatase and protease inhibitor cocktail (Thermo #78442) were added to mPER buffer at a 1:100 dilution. After the cells were pelleted, 50 μL of mPER buffer was added to each sample and pipetted repeatedly to homogenize.
The lysates were centrifuged at 14,000 RPM for 5 min at RT. The supernatants were transferred to clean tubes and stored frozen at −80° C.
In the Western Blot shown in FIG. 1, sample numbers 1-10 were probed with an anti-pSTAT5 antibody, sample numbers 1-10 were probed with an anti-STAT5 antibody, sample numbers 11-20 were probed with an anti-pSTAT5 antibody, and sample numbers 11-20 were probed with anti-STAT5 antibody. […]

IL-2 receptor subunit = settings: cells expressing IL-2 receptor subunit/β-Gal fragment constructs; read-out: IC50 of β-Gal activity generated on treatment; cited from earlier work

For IL-2: Recombinant human Interleukin-2, the “potency of pSTAT5 activation across human T-cell populations” value [1] is given as “potency bias for Treg and CD4 T-cells”, the “STAT5 phosphorylation with IL-2 neutralizing antibody added” value (NK-92 cells) is given as “suppressed” and the IC50 (IL-2 receptor subunit) is given as ~26 nM.
